From patent publication US4801610A, “Phenolic ester derivatives as elastase inhibitors” (G. D. Searle & Co., priority 1987, dated 1989) come the findings set out here.

The target of this test is T1, Human Leukocyte Elastase (HLE) (Homo sapiens, UniProt P08246).
T1 sequence (P08246 30-247 limits assumed): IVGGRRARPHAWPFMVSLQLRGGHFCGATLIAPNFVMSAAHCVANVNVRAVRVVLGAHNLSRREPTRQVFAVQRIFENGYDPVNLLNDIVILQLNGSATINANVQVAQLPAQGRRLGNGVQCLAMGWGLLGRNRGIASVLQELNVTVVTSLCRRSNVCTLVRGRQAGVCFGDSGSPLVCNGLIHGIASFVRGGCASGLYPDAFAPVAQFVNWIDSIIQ
The test is described as follows: Inhibition of Human Leukocyte Elastase (HLE), hydrolysis of Methoxysuccinyl-Ala-Ala-Pro-Val-nitroanilide. The class given is biochemical. The note with it: tris-HCl buffer pH 8.0, absorption at 410 nm, read-out: Inhibition of Elastase IC50, [Molar]. As to the method: Several biochemical and animal model tests can be used to examine the ability of the derivatives of the invention to prevent or alleviate the harmful biological action of elastase. The biochemical assays permit direct measurement of drug controlled inhibition of elastase fragmentation of proteins. […] In these tests, protease reaction with the substrate is measured in the presence and absence of the drug to be tested. Inhibition of protease action is indicated by a decrease in the amount of substrated fragmented. The basic parameters for such biochemical assays have been reported in the literature: J. Biol. Chem., 255, 5435 (1980); Biochem. Biophys Acta., 268, 257 (1973); Anal. Biochem. 48,9 (1972); and Biochemistry, 20, 3675 (1981). EXAMPLE 42 Inhibition of Human Leukocyte Elastase (HLE) This test measures the rate of hydrolysis of Methoxysuccinyl-[…]-nitroanilide by HLE in the presence and absence of the compound to be tested. The procedure used is as follows. The following stock solutions are prepared: […] 2. a dimethylsulfoxide solution of the nitroanilide peptide (2 m mole), 3. tris-HCl buffer (0.2M,pH 8.0) and […] […] The cuvette was capped, slightly shaken and placed in the light chamber of a recording colorimeter where the increase in absorption at 410 nm. due to liberated nitroaniline was measured. […]

As for `CC(C)(C)C(=O)Oc1ccc(S(=O)(=O)c2ccc(OC(=O)C(C)(C)C)cc2)cc1` [Example 17a, 4,4'-dipivaloyloxy-diphenylsulfone], the IC50 stood at 83 nM.
